System: neutrophils
Assay: Neutrophil viability (LDH release)
Details: 5 to 100 mM, 1 hour at 37° C.

aluminum fluoride
LDH release above controls: did not show any increased level of LDH release
